# Assay results reported in PubChem BioAssay AID720709 (National Center for Advancing Translational Sciences (NCATS), 2013).
# The chains behind the UniProt entries cited, without tags or fusion partners. Where a name states a change or a piece, a line headed by the entry shows the natural chain unless it says otherwise.
# UniProt O95398: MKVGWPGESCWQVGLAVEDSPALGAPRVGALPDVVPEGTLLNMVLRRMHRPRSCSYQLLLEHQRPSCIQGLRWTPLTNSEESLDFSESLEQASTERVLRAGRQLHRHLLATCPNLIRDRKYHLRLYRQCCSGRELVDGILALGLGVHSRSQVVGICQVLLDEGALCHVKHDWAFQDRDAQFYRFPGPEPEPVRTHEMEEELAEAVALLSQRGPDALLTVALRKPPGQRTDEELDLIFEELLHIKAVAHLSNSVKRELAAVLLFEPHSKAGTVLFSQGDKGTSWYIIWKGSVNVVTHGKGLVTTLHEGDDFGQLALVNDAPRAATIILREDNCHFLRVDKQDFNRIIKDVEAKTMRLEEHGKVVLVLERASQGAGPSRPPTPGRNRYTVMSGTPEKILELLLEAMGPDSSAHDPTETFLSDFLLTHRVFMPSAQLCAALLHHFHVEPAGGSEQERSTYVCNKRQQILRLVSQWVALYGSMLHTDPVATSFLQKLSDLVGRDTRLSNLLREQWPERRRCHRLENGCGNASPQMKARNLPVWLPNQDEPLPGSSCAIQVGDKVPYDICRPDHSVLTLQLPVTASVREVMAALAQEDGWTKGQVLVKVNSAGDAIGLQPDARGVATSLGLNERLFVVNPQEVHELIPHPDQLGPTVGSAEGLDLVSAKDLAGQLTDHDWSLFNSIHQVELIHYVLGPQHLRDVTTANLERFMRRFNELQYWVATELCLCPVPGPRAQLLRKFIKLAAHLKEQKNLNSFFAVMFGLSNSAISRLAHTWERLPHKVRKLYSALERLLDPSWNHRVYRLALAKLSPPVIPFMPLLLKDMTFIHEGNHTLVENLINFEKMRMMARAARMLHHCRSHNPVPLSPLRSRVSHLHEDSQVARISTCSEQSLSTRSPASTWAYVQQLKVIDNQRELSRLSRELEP
# The whole screen tested about 360,000 compounds, of which about 520 (0.14%) were called active. These results got no clear call from the source, so the numbers are uncertain. Calls come from the whole dose curve; as a rule, active = well fitted inhibition curve with a large enough effect; inconclusive = small, poorly fitted or top-dose-only effect; inactive = no such curve, though single readings can be large or run the other way.
# Molecular target: Rap guanine nucleotide exchange factor 3 (Homo sapiens) (UniProt O95398)
# Test: qHTS for Antagonist of cAMP-regulated guanine nucleotide exchange factor 3 (EPAC1): primary screen; note: nearly all actives have a fitted effect of over 50% in size
# Conditions: EPAC1 GEF assay, Rap1b-BODIPY-GDP exchange fluorescence
# Text: In multi-cellular eukaryotic organisms, the effects of cAMP are transduced by two ubiquitously-expressed intracellular cAMP receptors, the classic protein kinase A/cAMP-dependent protein kinase (PKA/cAPK) and the more recently discovered exchange protein directly activated by cAMP/cAMP-regulated guanine nucleotide exchange factor (EPAC/cAMP-GEF). Both PKA and EPAC are ubiquitously expressed in all tissues, and an increase in intracellular cAMP levels will lead to the activation of both PKA and EPAC. Therefore, careful dissections of the individual role and relative contribution of EPAC and PKA within the overall cAMP signaling in various model systems are critical for further elucidating the mechanism of cAMP signaling. To date no EPAC-specific antagonists and agonist, as well as isoform-specific agonists have been reported, and developing EPAC-specific pharmacological probes to determine the physiological functions that EPAC play in the overall cAMP-mediated signaling remains a major challenge within the research field. Furthermore, identified regulators of EPAC may lead to new mechanism-based therapeutic strategies specifically targeting the EPAC / cAMP-signaling components as EPAC has been implicated to play important roles in major human pathological conditions such as diabetes, heart disease, and cancer. This qHTS will be used to screen the Molecular Libraries Small Molecule Repository (MLSMR) as a concentration-titration series using the NCGC unique quantitative screening (qHTS) platform to find inhibitors for EPAC1. In addition, this assay will also be used as a counterscreen for the EPAC2 qHTS. This fluorescent based assay is developed and validated for EPAC1 that measures exchange using EPAC effector Rap1 complex with BODIPY-GDP, a GDP analog with a tethered fluorophores. Inhibitors are identified by monitoring the change in fluorescence signal as the exchanged free BODIPY-GDP has a reduced fluorescence compared to Rap1-bound BODIPY-GDP. Decrease in signal (inhibition) is the desired outcome for the EPAC1 antagonist while no activity in this assay is desired for the EPAC2 antagonist counterscreen. de Rooij, J., Zwartkruis, F. J., Verheijen, M. H., Cool, R. H., Nijman, S. M., Wittinghofer, A., and Bos, J.L. (1998) Nature 396, 474-477 [2] Kawasaki, H., Springett, G. M., Mochizuki, N., Toki, S., Nakaya, M., Matsuda, M., Housman, D. E., and Graybiel, A. M. (1998) Science 282, 2275-2279 NIH Chemical Genomics Center [NCGC] NIH Molecular Libraries Probe Centers Network [MLPCN] MLPCN Grant: NS066510 Assay Submitter (PI): Xiaodong Cheng, The University of Texas, Medical Branch
# Briefly, three uL of reagents (100 nM EPAC1, 250 nM RAP1B-BODIPY-GDP, 50 uM GDP) were dispensed into a 1536-well Greiner black solid-bottom medium binding assay plate. Controls and test compounds (23 nL) were transferred to the plate via a Kalypsys pin tool equipped with a 1536-pin array. The plates were centrifuged at 1,000 rpm for 15 seconds followed by 5 minute incubation at room temperature. The assay plates were read at 5 minute intervals for 30 minutes in the ViewLux plate reader using 480nm excitation and 540nm emission filters. The results were normalized to the […] positive control ATA and DMSO.
# Potency is the fitted concentration of half-maximal effect.
row,SMILES,Potency
1,O=[N+]([O-])c1ccc(-c2cc([N+](=O)[O-])c(O)c([N+](=O)[O-])c2)cc1,inconclusive: 56.2 µM
2,COC(=O)C1(C)COP(=O)(N2CCCC2)OC1 (stereo not given),inconclusive: 39.8 µM
3,CC1CCC(C(C)C)C(OP(=O)(Nc2ccccn2)c2ccccc2)C1 (stereo not given),inconclusive: 35.5 µM
4,CCC1=CC2Cc3nc4ccc(Cl)cc4c(N)c3C(C1)C2 (stereo not given),inconclusive: 44.7 µM
5,CCOP1(=S)c2c(C)nn(CCC#N)c2N=C(c2ccc(F)cc2)N1C (stereo not given),inconclusive: 4.47 µM
6,O=C(OC1CN2CCC1CC2)c1ccccc1 (stereo not given),inconclusive: 44.7 µM
7,O=C(NC1CCS(=O)(=O)C1)NP(=S)(Oc1ccccc1)Oc1ccccc1 (stereo not given),inconclusive: 15.8 µM
8,Cc1ccccc1CN(C)C(=O)COC(=O)C(O)(c1ccccc1)c1ccccc1,inconclusive: 12.6 µM
9,Nc1ccc(CCCCOc2ccccc2)cc1,inconclusive: 20 µM
10,O=[N+]([O-])c1cc([N+](=O)[O-])c(CCNc2ccccc2)c([N+](=O)[O-])c1,inconclusive: 39.8 µM
